Results on two molecules are retold here after ChEMBL document CHEMBL1145401, “Design and synthesis of classical and nonclassical 6-arylthio-2,4-diamino-5-ethylpyrrolo[2,3-d]pyrimidines as antifolates” (J Med Chem, 2007).

The target of assay [1] is T1, Dihydrofolate reductase (Mycobacterium avium, UniProt O30463).
T1 sequence (O30463 whole entry): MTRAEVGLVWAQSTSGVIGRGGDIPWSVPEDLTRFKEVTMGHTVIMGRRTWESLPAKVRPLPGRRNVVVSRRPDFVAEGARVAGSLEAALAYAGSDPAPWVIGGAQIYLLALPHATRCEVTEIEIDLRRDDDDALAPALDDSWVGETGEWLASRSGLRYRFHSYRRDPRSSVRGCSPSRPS

Assay [2] can be described thus: Selectivity ratio of IC50 for rat liver DHFR to IC50 for Pneumocystis carinii DHFR.

The structures appear in SMILES notation.

For orientation: IC50 means the concentration at which inhibition is half-maximal. As to `CCc1c(Sc2ccccc2)[nH]c2nc(N)nc(N)c12`, half-maximal inhibition in assay [1] (IC50) was put at 880 nM.

With `COc1ccc(OC)c(Sc2[nH]c3nc(N)nc(N)c3c2C)c1`, the Ratio IC50 in assay [2] amounted to 0.5.
